Assay results as given in US9745311B2, “Substituted pyrrolo[2,3-b]pyrazines as FGFR inhibitors” (Incyte Corporation, priority 2012, dated 2017).

Chains of the proteins cited; added tags and fusions are not shown. Residues count along the entry.
UniProt P11362, 22-822 limits assumed: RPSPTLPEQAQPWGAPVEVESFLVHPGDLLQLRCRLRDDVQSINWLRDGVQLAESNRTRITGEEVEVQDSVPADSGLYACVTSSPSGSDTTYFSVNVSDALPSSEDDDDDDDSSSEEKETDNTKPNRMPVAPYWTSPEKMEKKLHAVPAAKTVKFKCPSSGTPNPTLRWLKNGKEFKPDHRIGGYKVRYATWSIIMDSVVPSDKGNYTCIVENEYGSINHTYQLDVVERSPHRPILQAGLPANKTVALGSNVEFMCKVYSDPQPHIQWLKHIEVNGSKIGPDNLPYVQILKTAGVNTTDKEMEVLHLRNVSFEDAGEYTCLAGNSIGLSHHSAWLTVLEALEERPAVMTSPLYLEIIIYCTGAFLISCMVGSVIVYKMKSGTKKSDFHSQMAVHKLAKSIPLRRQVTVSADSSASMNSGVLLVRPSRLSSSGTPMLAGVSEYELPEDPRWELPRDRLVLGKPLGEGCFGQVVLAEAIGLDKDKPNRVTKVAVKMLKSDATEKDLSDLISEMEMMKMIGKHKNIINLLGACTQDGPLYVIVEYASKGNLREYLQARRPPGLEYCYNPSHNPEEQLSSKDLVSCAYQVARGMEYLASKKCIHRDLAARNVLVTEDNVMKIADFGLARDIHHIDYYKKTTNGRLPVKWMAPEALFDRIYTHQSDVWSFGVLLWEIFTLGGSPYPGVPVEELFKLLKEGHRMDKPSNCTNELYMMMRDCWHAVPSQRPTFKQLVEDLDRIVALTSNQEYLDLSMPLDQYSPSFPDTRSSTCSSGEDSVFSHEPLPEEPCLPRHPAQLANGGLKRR
UniProt P21802, 22-821 limits assumed: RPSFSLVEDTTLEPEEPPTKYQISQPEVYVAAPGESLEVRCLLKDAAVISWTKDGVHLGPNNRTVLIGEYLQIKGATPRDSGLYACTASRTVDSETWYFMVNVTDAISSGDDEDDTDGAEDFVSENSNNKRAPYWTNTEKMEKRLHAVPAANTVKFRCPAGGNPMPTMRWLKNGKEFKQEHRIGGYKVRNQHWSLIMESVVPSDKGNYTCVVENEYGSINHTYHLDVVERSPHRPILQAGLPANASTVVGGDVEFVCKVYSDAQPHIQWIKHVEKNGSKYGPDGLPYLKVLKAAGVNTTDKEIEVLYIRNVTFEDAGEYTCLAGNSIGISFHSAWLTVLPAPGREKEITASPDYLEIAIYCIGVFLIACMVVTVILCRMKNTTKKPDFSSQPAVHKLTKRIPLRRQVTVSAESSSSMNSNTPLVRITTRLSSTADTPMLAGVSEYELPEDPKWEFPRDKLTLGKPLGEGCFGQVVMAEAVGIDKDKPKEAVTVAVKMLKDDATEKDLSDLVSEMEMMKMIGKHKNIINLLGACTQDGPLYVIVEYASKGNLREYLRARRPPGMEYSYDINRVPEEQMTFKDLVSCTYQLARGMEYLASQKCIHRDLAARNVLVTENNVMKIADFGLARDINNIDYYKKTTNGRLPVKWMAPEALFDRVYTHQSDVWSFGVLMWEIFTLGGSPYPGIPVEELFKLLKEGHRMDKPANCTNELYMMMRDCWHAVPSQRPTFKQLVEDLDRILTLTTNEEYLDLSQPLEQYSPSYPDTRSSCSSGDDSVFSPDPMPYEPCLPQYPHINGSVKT

How the values were obtained:
[1] = molecular target: FGFR1 (Homo sapiens (Human), UniProt P11362); assay: FGFR Enzymatic Assay (FGFR1); format: biochemical; conditions: read-out: FGFR1 IC50; enzyme 0.02 nM, ATP 210 μM
[2] = molecular target: FGFR2 (Homo sapiens (Human), UniProt P21802); assay: FGFR Enzymatic Assay (FGFR2); format: biochemical; conditions: read-out: FGFR2 IC50; enzyme 0.01 nM, ATP 100 μM;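 further: FRET read-out of peptide phosphorylation by the purified kinase, with enzyme-free blank and uninhibited enzyme as controls, potency from a variable-slope sigmoidal dose-response fit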

Compound: COc1cc(CCc2cnc3[nH]c(-c4csc(C(=O)O)c4)cc3n2)cc(OC)c1
- IC50 [1]: < 100 nM
- IC50 [2]: < 100 nM
